{"source": "ChEMBL document CHEMBL4402517", "about": "“Rational modification of Mannich base-type derivatives as novel antichagasic compounds: Synthesis, in vitro and in vivo evaluation” (Bioorg Med Chem, 2019)", "key": {"[1]": {"experiment": "Mutagenecity against Salmonella typhimurium TA1535 assessed as number of colonies in absence of Sprague-Dawley rat S9 with metabolic activation measured after 48 hrs by Ames test ( Rvb = 13.3 +/- 2.5)", "details": "salmonella enterica subsp. enterica serovar typhimurium, s9, 48 h"}, "[2]": {"experiment": "Mutagenecity against Salmonella typhimurium TA1535 assessed as number of colonies in presence of Sprague-Dawley rat S9 with metabolic activation measured after 48 hrs by Ames test ( Rvb = 5 +/- 3.6)", "details": "salmonella enterica subsp. enterica serovar typhimurium, s9, 48 h"}}, "data": [{"smiles": "[N-]=[N+]=N.[Na+]", "values": [{"measurement": "Activity", "setting": "[1]", "value": 235}, {"measurement": "Activity", "setting": "[2]", "value": 96}]}]}
